Assay results as given in patent US8974768B2, “Azo compounds reducing formation and toxicity of amyloid beta aggregation intermediates” (Max-Delbrueck-Centrum fuer Molekulare Medizin, priority 2010, dated 2015).

By UniProt entry, the sequences of proteins in these tests, tags left out. Residues count along the entry.
UniProt P05067, 672-713 limits assumed: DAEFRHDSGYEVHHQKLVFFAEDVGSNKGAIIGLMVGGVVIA

Experiments:
Aβ1-42 peptide = Aβ1-42 peptide (Homo sapiens, UniProt P05067); experiment: Thioflavin T (Thio T)-assay of Aβ aggregation; type: biochemical; settings: read-out: ThioT: IC50; 30 μM Aβ1-42 peptide, 48 h at 37° C., vs DMSO control
[1] = Detection of compounds in brain after in vivo administration; set-up: Detection in brain after i.v. administration: key to the marks not given beside the values
[2] = system: secreted Aβ monomers and dimers; experiment: Cell-based Aβ-monomer and dimer assay (7PA2 cells, immunoprecipitation/immunoblot); settings: 20 μM compound, 16-20 hours

For `O=[N+]([O-])c1ccc(N=Nc2ccc(O)c([N+](=O)[O-])c2)c([N+](=O)[O-])c1`, the IC50 (Aβ1-42 peptide) was 2600 nM, the “Detection in brain after i.v. administration” value ([1]; B6C3 mouse, 5 mg/kg body weight i.v. once, brain samples) was “++” and the “Detectability after oral administration” value ([1]; mouse brain, oral gavage or feeding pellets) was “excellent”. For the same molecule, the “Detection in brain after oral administration, oral gavage administration” value ([1]; mouse, five to seven doses over two or three days, sampling 30 min. after last application) was “++^a)/n.d.^b)” and the Dimer reduction [2] was “toxic”.
